The inhibition is the drop in the measured response relative to a control, in per cent.

The list shows a part of the results, in another mix than the full data. The source made the active and inactive calls.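 How the source made its calls: active means inhibition above the mean over all tested compounds plus 3 SD (cut at about 3.6% in these data); inactive means the rest.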

This test is described as follows: relief of DAX-1 repression of SF-1 activity – cell-based, luminescence, SF-1 (NR5A1), full-length DAX-1, primary screen (AID 652010).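 Further: 0% = DAX-1 cells with DMSO and 100% = cells lacking DAX-1 with DMSO; higher inhibition means more luminescence from relief of DAX-1 repression.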 Particulars: HEK293T StAR-luciferase reporter, SF-1/DAX-1 repression relief; at 6.8 µM; active compounds read high.
On to `N#Cc1ccc(C(=O)NCC2(N3CCCCC3)CCCCC2)cc1`, for which the inhibition was inactive: 1.81%.
With `CC(C)(C)OC(=O)N1CCC(N(C(=O)c2ccccc2)c2ccc(Cl)cc2)CC1`, the inhibition is inactive: -0.31%.
As for `CC(C)(C)n1nnnc1C(c1cccc2ccccc12)N1CCC(n2c(=O)[nH]c3ccccc32)CC1` (configuration not stated), the figure is inactive: 0.09%.
As for `CN(C)C1(CNC(=O)c2cccc(C#N)c2)CCCCC1`, the figure is inactive: 0.54%; as for `c1ccc(CN2CCC(Nc3ccccc3)CC2)cc1`, inactive: -0.4%.
As for `C/C(N)=N\P(=O)(Oc1ccccc1)Oc1ccccc1`, the figure is inactive: 0.48%; as for `Cc1cc(N(CCCl)CCCl)ccc1C=O`, inactive: -3.45%.
For the compound `CCCN1CCC(Nc2cc(OC)cc(OC)c2)CC1`, the inhibition was inactive: 0.19%.
To `O=c1[nH]c2ccccc2n1C1CCN(C(c2ccccc2)c2nnnn2C2CCCC2)CC1` (configuration not stated) belongs inactive: -1.93%.
As for `O=c1[nH]c2ccccc2n1C1CCN(C(c2cccs2)c2nnnn2C2CCCCC2)CC1` (configuration not stated), the inhibition was inactive: -2.63%.
Consider `NC(=O)C1(Nc2ccccc2)CCN(Cc2ccccc2)CC1`, for which the inhibition is inactive: 0.85%.
Consider `COc1ccc(C(=O)NCC2(N3CCOCC3)CCCCC2)cc1OC`, for which the inhibition was inactive: 2.93%.
To `O=c1[nH]c2ccccc2n1C1CCN(C(c2ccnc3ccccc23)c2nnnn2C2CCCC2)CC1` (configuration not stated) belongs inactive: 2.02%.
In the case of `CCCCn1nnnc1C(c1ccccc1)N1CCC(n2c(=O)[nH]c3ccccc32)CC1` (configuration not stated), the inhibition was inactive: -1.95%.
`COc1cc(C(=O)NCC2(N3CCOCC3)CCCCC2)cc(OC)c1C`: the inhibition is inactive: 1.64%.
Consider `O=C(NCC1(N2CCOCC2)CCCCC1)c1cc(Br)ccc1Cl`, for which the inhibition was inactive: -1.69%.
Turning to `O=C(OC1CN2CCC1CC2)C1c2ccccc2C=Cc2ccccc21` (configuration not stated), the inhibition was inactive: -0.12%.
Turning to `O=c1[nH]c2ccccc2n1C1CCN(C(c2cccs2)c2nnnn2C2CCCC2)CC1` (configuration not stated), the inhibition is inactive: -2.65%.
As for `CCCCn1nnnc1C(c1cccc(OC)c1OC)N1CCC(n2c(=O)[nH]c3ccccc32)CC1` (configuration not stated), the figure is inactive: -3.69%; as for `COc1cccc(C(c2nnnn2C(C)(C)C)N2CCC(n3c(=O)[nH]c4ccccc43)CC2)c1OC` (configuration not stated), inactive: -0.94%.
As for `CCOC(=O)N1CCC(Nc2ccc(C)cc2)CC1`, the inhibition was inactive: -0.41%.
For `N/C(=N\O)c1c(N)no[n+]1[O-]`, the inhibition is inactive: 0.38%.
For the compound `CC(C)(C)OC(=O)N1CCC(Nc2ccccc2)CC1`, the inhibition was inactive: -1.27%.
In the case of `NN(c1ccccc1)C1CCN(CCc2ccccc2)CC1`, the inhibition is inactive: -0.29%.
As for `O=C(O)C1(Nc2ccccc2)CCN(Cc2ccccc2)CC1`, the figure is inactive: -0.29%.
`CCCOc1ccc(C(=O)NCC2(N(C)C)CCCCC2)cc1`: the inhibition was inactive: -0.02%.
As for `O=c1[nH]c2ccccc2n1C1CCN(C(c2cc3ccccc3o2)c2nnnn2C2CCCC2)CC1` (configuration not stated), the figure is inactive: -0.12%; as for `CCOc1ncccc1C(=O)NCC1(N2CCOCC2)CCCCC1`, inactive: -0.15%.
On to `CN1CCC(Nc2ccc(F)c(Cl)c2)CC1`, for which the inhibition was inactive: -0.8%.
As for `CN1CCC(Nc2ccc(Cl)cc2)CC1`, the inhibition is inactive: 0.95%.
With `COc1cccc(C(=O)N(c2cc(C)cc(C)c2)C2CCN(C(=O)OC(C)(C)C)CC2)c1`, the inhibition was inactive: 0.26%.
On to `COc1cccc(C(c2nnnn2C2CCCC2)N2CCC(n3c(=O)[nH]c4ccccc43)CC2)c1OC` (configuration not stated), for which the inhibition was inactive: -3.85%.
As for `COc1cc(OC)cc(C(=O)NCC2(N3CCOCC3)CCCCC2)c1`, the figure is inactive: 0.59%; as for `CCC(CO)(C(=O)OC1CN2CCC1CC2)c1ccccc1` (configuration not stated), inactive: 1.14%.
As for `Cc1ccc(C(=O)NCC2(N3CCCCC3)CCCCC2)o1`, the figure is inactive: 2.13%; as for `Fc1ccccc1NC1CCN(Cc2ccccc2)CC1`, inactive: 0.21%.
With `Cc1ccc(NC2(C#N)CCN(Cc3ccccc3)CC2)cc1`, the inhibition is inactive: 0.3%.
On to `CC(=O)N(c1ccccc1)C1CCNCC1`, for which the inhibition is inactive: -0.13%.
As for `COc1cccc(C(c2nnnn2C2CCCCC2)N2CCC(n3c(=O)[nH]c4ccccc43)CC2)c1OC` (configuration not stated), the figure is inactive: -4.85%; as for `CCC(c1nnnn1C1CCCCC1)N1CCC(n2c(=O)[nH]c3ccccc32)CC1` (configuration not stated), inactive: 1.35%; as for `O=c1[nH]c2ccccc2n1C1CCN(C(c2ccnc3ccccc23)c2nnnn2C2CCCCC2)CC1` (configuration not stated), inactive: 1.58%.
In the case of `COc1cc(OC)cc(C(=O)NCC2(N3CCCCC3)CCCCC2)c1`, the inhibition was inactive: 0.76%.
As for `O=C(NCC1(N2CCCCC2)CCCCC1)c1ccco1`, the figure is inactive: -2.13%; as for `Cn1c(=O)[nH]cc(N(CCCl)CCCl)c1=O`, inactive: 0.63%; as for `CN(C)c1ccc(C(=O)NCC2(N3CCCCC3)CCCCC2)cc1`, active: 4.92%.
With `Cc1ccccc1NC1(C#N)CCN(Cc2ccccc2)CC1`, the inhibition is inactive: 0.18%.
To `CC(C)(C)n1nnnc1C(c1ccnc2ccccc12)N1CCC(n2c(=O)[nH]c3ccccc32)CC1` (configuration not stated) belongs inactive: 3.17%.
In the case of `CCN1CCC(Nc2cccc(F)c2)CC1`, the inhibition was inactive: 0.24%.
For the compound `COc1ccc(C(c2nnnn2C2CCCCC2)N2CCC(n3c(=O)[nH]c4ccccc43)CC2)cc1` (configuration not stated), the inhibition is inactive: -0.6%.
On to `O=C(NCC1(N2CCCCC2)CCCCC1)c1ccc(F)cc1`, for which the inhibition was inactive: 0.13%.
Consider `CCCCOc1ccc(C(=O)NCC2(N3CCOCC3)CCCCC2)cc1`, for which the inhibition is inactive: -0.3%.
In the case of `O=P1(N(CCCl)CCCl)SCCCS1`, the inhibition was inactive: -1.08%.
To `CCCCn1nnnc1C(c1cc2ccccc2o1)N1CCC(n2c(=O)[nH]c3ccccc32)CC1` (configuration not stated) belongs inactive: 0.3%.
In the case of `CCOC(=O)N1CCC(Nc2ccc(F)cc2)CC1`, the inhibition is inactive: 0.01%.
Turning to `COc1ccc(NC2CCN(CCc3ccccc3)CC2)c(OC)c1`, the inhibition was inactive: 0.59%.
To `CC(C)(C)n1nnnc1C(c1ccccc1)N1CCC(n2c(=O)[nH]c3ccccc32)CC1` (configuration not stated) belongs inactive: 1.77%; to `O=C1CCN(Cc2ccccc2)CC1`, inactive: 1.07%.
To `CCOc1ccc(C)cc1CN(CCCl)CCCl` belongs inactive: -0.17%; to `COc1cc(C(=O)NCC2(N(C)C)CCCCC2)ccc1OC(F)F`, inactive: -0.04%.
As for `CCOC(=O)N1CCC(Nc2cccc(C)c2)CC1`, the figure is inactive: -0.15%; as for `O=c1[nH]c2ccccc2n1C1CCN(C(c2cccc3ccccc23)c2nnnn2C2CCCC2)CC1` (configuration not stated), inactive: 2.62%; as for `O=c1[nH]c2ccccc2n1C1CCN(C(c2ccccc2)c2nnnn2C2CCCCC2)CC1` (configuration not stated), inactive: 0.18%.

The values above are taken from PubChem BioAssay AID652010 (The Scripps Research Institute Molecular Screening Center, 2013).
